This is an account of results in publication PMC8149352, “The pharmacokinetics of pamiparib in the presence of a strong CYP3A inhibitor (itraconazole) and strong CYP3A inducer (rifampin) in patients with solid tumors: an open-label, parallel-group phase 1 study” (Cancer Chemotherapy and Pharmacology, 2021).

The nature of the data set: Part A safety: adverse events (NCI CTCAE v5.0), safety population. Conditions: Part A (N = 12); by treatment period. The class given is in vivo, human (patients with advanced solid tumors). As for the experimental part: This was an open-label, parallel-group, phase 1 study consisting of a 2-part core phase and an extension phase. Only results for the core phases are reported herein (Supplementary Fig. 1). Part A of the core phase assessed the effect of the strong CYP3A inducer rifampin on the PK of pamiparib in patients with advanced solid tumors. Patients received a single dose of oral pamiparib 60 mg on days 1 and 10, and oral rifampin 600 mg QD on days 3–11. Patients fasted for at least 8 h before and at least 4 h after receiving pamiparib and rifampin. Blood samples for PK analysis were obtained on days 1 and 10 at predose, and at 0.5, 1, 2, 4, 6, 9, 12, 24, and 48 h postdose. Pamiparib plasma concentrations were determined using a validated liquid chromatography–mass spectrometry/mass spectrometry method (lower limit of quantification 1.0 ng/mL) at Covance Laboratory Services (Salt Lake City, Utah).
Adverse events (AEs) were monitored throughout the study and were graded according to the National Cancer Institute Common Terminology Criteria v5.0.
The safety population included all patients who received at least one dose of pamiparib. […] Plasma PK parameters were calculated from pamiparib concentration–time profiles using standard noncompartmental methods. PK parameters were calculated using Phoenix WinNonlin v6.4 or higher (Certara, Princeton, NJ, USA). […]

SMILES strings stand for the structures.

As to `CO[C@H]1/C=C/O[C@@]2(C)Oc3c(C)c(O)c4c(O)c(c(/C=N/N5CCN(C)CC5)c(O)c4c3C2=O)NC(=O)/C(C)=C\C=C\[C@H](C)[C@H](O)[C@@H](C)[C@@H](O)[C@@H](C)[C@H](OC(C)=O)[C@@H]1C` [Rifampin, rifampin], the “All TEAEs (any grade), patients” value is 2 (16.7) n (%).
